The conditions of this data set: experimental values compiled from the literature.

Each structure is given as a SMILES string. In brackets after ≈: the same amount, converted by molar mass.

Regarding `Cc1ccc([N+](=O)[O-])c([N+](=O)[O-])c1`, the solubility – broadly, the concentration that dissolves in the medium under given conditions – amounted to 549 µM (≈ 100 µg/mL).

(Values after the OPERA property sets (Mansouri et al. 2018).)
